# Source: PubChem BioAssay AID504326 (The Scripps Research Institute Molecular Screening Center, 2011)
# Chains of the proteins cited; added tags and fusions are not shown.
# UniProt P35372, whole entry, looked up: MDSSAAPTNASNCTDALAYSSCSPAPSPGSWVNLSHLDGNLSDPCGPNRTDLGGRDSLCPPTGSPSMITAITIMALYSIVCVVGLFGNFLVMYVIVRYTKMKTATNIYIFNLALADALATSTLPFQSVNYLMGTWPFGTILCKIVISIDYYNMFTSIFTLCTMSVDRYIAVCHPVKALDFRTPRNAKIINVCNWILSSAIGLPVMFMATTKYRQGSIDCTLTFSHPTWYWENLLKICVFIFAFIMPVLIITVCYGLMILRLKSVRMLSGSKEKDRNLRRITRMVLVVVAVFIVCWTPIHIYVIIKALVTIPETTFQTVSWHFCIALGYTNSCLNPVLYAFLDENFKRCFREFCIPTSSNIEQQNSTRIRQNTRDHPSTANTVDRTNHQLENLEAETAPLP
# UniProt P41143, whole entry, looked up: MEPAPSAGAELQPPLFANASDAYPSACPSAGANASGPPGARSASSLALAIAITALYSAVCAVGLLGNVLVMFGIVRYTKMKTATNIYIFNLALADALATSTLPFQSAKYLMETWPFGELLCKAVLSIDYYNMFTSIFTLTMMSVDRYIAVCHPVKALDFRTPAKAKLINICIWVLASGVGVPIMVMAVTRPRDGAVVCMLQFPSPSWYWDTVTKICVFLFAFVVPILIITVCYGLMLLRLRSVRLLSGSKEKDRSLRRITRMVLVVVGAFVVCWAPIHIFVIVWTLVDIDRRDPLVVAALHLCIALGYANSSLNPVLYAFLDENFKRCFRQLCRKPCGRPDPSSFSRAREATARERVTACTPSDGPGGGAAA
# Only a part is listed here, and it is no random draw. Calls of active or inactive are those of the source. Cut-off read from the data, not from the text of the source: active = activation above about 18%; inactive = the rest.
# Molecular target: Mu-type opioid receptor (Homo sapiens) + Delta-type opioid receptor (Homo sapiens) (UniProt P35372+P41143)
# Assay: inducers of mu-delta opioid receptor heterodimers – cell-based, luminescence, primary screen (AID 504326);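 note: 0% = vehicle-treated cells and 100% = reference agonist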
# Settings: cells, OPRM1-OPRD1 heterodimerization, at 9.3 µM, stronger effect = higher value
row,SMILES,activation
1,Cc1ccc(-c2csc(N3CCN(c4ccc5nc(-c6ccncc6)n(CCN6CCCCC6)c5c4)CC3)n2)cc1,inactive: 0.27%
2,CN(C)C(=O)Cn1c(SCC(=O)Nc2ccc3c(c2)OCO3)nc2ccccc21,inactive: -2.13%
3,Nc1nonc1-c1nc2ccccc2n1CC(=O)N/N=C\c1ccc(-c2ccc(Cl)cc2)o1,inactive: 1.35%
4,NC(=O)c1cc([N+](=O)[O-])cc([N+](=O)[O-])c1N,inactive: 2.18%
5,C[C@H](O)[C@@H]1C(=O)N2CCc3ccc(-c4ccccc4)cc3[C@@H]2C[C@@H]1N(C)C(=O)NC1CCCCC1,inactive: -2.19%
6,CSc1nc(N)nc2c1ncn2CC(=O)NCc1ccc2[nH]ccc2c1,inactive: -4.06%
7,Cc1ccc2c(c1)C1CN(C)CCC1N2C(=O)c1ccc(Cl)c(S(=O)(=O)N2CCOCC2)c1 (configuration not stated),inactive: -2.53%
8,O=C(Nc1ccccc1)N1CCC(n2c(=O)[nH]c3ccccc32)CC1,inactive: -0.65%
9,CC1CCCN(C(=O)Cn2c(-c3nonc3N)nc3ccccc32)C1 (configuration not stated),inactive: -2.42%
10,CN(CC(=O)Nc1ccc(F)c(F)c1F)C(=O)Cn1cnc2c1c(=O)n(C)c(=O)n2C,inactive: 2.24%
11,CC(CNC(=O)Cn1cnc2c(NCc3ccccc3)ncnc21)c1ccccc1 (configuration not stated),inactive: -1.9%
12,CN(C(=O)Cc1ccc(Cl)c(Cl)c1)[C@H]1CCCC[C@H]1N1CCCC1,inactive: -1.09%
13,O=C(CSc1nc2ccccc2n1CC(=O)N1CCCCC1)N1CCCCC1,inactive: -2.2%
14,CCN(CC)CCn1c(NS(=O)(=O)c2ccc(C)cc2)nc2ccccc21,inactive: 2.44%
15,Cc1ccc(N/C(=N/P(=O)(N2CCOCC2)N2CCOCC2)N2CCOCC2)cc1,inactive: -0.08%
16,O=C(Cn1cnc2c(NCc3ccccc3)ncnc21)NCc1ccc2c(c1)OCO2,inactive: -2.82%
17,CCOCN(C(=O)Cn1c(C(C)O)nc2ccccc21)c1c(C)cccc1CC (configuration not stated),inactive: -2.28%
18,CN1CCC(N(C)c2ncnc3ccc(Br)cc23)CC1,inactive: -2.41%
19,Cn1c(=O)c2c(ncn2CC(=O)N2CCN(c3ccc([N+](=O)[O-])cc3)CC2)n(C)c1=O,inactive: -2.03%
20,CCc1nc2ccccc2n1CC(=O)N(C(C)CC)C1CCS(=O)(=O)C1 (configuration not stated),inactive: -1.72%
21,CC(C)=N/N=C(\N)N[N+](=O)[O-],inactive: -1.7%
22,COC(=O)[C@H](Cc1ccc(O)cc1)NC(=O)Cn1cnc2c(NCc3ccccc3)ncnc21,inactive: -3.33%

row,SMILES,activation
1,Cn1c(=O)n(CC(=O)N2CCN(c3nnc(-c4ccccc4)c4ccccc34)CC2)c2ccccc21,inactive: -3.16%
2,CCN(CC)CCn1c(NCc2cccc(OC)c2OC)nc2ccccc21,inactive: -3.24%
3,NNC(=O)Cn1c(SCc2ccccc2)nc2ccccc21,inactive: 3.03%
4,O=C(Cn1cnc2c(OCc3ccccc3)ncnc21)NCCCN1CCCC1=O,inactive: -2.96%
5,CN(C)C(=O)OCCc1n(C)cc[n+]1C,inactive: -1.12%
6,CC1CCN(C(=O)Oc2c(Cl)cc(Cl)c3cccnc23)CC1,inactive: 4.44%
7,CNC(=O)Cc1nc2ccccc2n1CC(=O)Nc1cc(C)cc(C)c1,inactive: -1.2%
8,N=c1n(CCN2CCOCC2)c2ccccc2n1CC(=O)c1cccc([N+](=O)[O-])c1,inactive: 0.58%
9,O=C1CC(C(=O)Nc2cccc(F)c2)n2c(nc3ccccc32)N1 (configuration not stated),inactive: 0.26%
10,O=C(Cn1cnc2c(OCc3ccccc3)ncnc21)NCCCn1ccnc1,inactive: -4.35%
11,CCSc1nc2ccccc2n1CC(=O)N1CCCCC1,inactive: -2.68%
12,Cc1nc2ccccc2n1CC(=O)NC1CCCCCC1,inactive: -1.22%
13,FC(F)(F)c1ccc2c(c1)nnn2C1CCN(Cc2nnnn2Cc2ccccc2)CC1,inactive: 2.36%
14,COc1ccc2nc(NC(=O)Cn3cnc4c(=O)n(C)c(=O)n(C)c43)sc2c1,inactive: 0.16%
15,CCC(=O)Nc1ccc(NC(=S)NC(=O)/C=C/c2ccccc2)cc1,inactive: -1.71%
16,COCC(=O)N(C)[C@H]1C[C@H]2c3cc(N4CCN(C)CC4)ccc3CCN2C(=O)[C@H]1[C@H](C)O,inactive: -0.86%
17,Nc1ccc([As](=O)(O)c2ccc(N)cc2)cc1,inactive: -0.83%
18,CCC(CC)NC(=O)Cn1c(C(C)NC(C)=O)nc2ccccc21 (configuration not stated),inactive: 0.37%
19,c1ccc(CCn2nnnc2CN2CCC(n3nnc4ccccc43)CC2)cc1,inactive: -1.35%
20,C[C@H](NC(=O)N1CCn2c1nc1ccccc12)C(=O)NC1CCCCC1,inactive: -1.74%
21,CCc1ccc(C(C)NC(=O)Cn2cnc3c(=O)n(C)c(=O)n(C)c32)cc1 (configuration not stated),inactive: -2.97%
22,Cc1nc2ccccc2n1CC(=O)NC(C)C1CC2CCC1C2 (configuration not stated),inactive: 1.28%

row,SMILES,activation
1,C[N+]1=C2C=CC=CC=C2SC12C([N+](=O)[O-])=CC([N+](=O)[O-])=C[C-]2[N+](=O)[O-] (configuration not stated),inactive: -0.47%
2,COc1ccc(-c2ccc3c(c2)[C@@H]2C[C@H](N(C)C(=O)Nc4ccccc4)[C@H]([C@H](C)O)C(=O)N2CC3)cc1,inactive: -2.3%
3,Cc1ccc(-c2nnc(N3CCN(C(=O)Cn4c(=O)n(C)c5ccccc54)CC3)c3ccccc23)cc1,inactive: -0.3%
4,COc1ccc(/C([O-])=C(/C(=S)Nc2ccc(C)c(C)c2)n2c[n+](C)c3ccccc32)cc1OC,inactive: -5.48%
5,CCN(/C(=N/P(=O)(N1CCOCC1)N1CCOCC1)N1CCOCC1)c1ccc(OC)cc1,inactive: -2.87%
6,CC(C)C[C@H](NC(=O)N1CCn2c1nc1ccccc12)C(=O)NC1CCCCC1,inactive: -0.49%
7,O=C(Nc1ccc2c(c1)nc1n2CCN(Cc2ccccc2)C1)NC1CCCCC1,inactive: -2.47%
8,CCOC(=O)c1c(NC(=O)Cn2c(C)nc3ccccc32)sc2c1CCC2,inactive: -0.88%
9,Cn1ncc([N+](=O)[O-])c1C(=O)Nc1nc2ccccc2n1CCN1CCCCC1,inactive: -1.88%
10,CC(=O)N1C2C3N(C(C)=O)C1C1N(C(C)=O)C(C(N1C(C)=O)N3C(C)=O)N2C(C)=O,inactive: -2.89%
11,CC#CCCC(=O)N1C=Cc2ccccc2C1C#N (configuration not stated),inactive: -2.03%
12,O=[N+]([O-])c1cccc2n[nH]nc12,inactive: -2.58%
13,COC(=O)c1sccc1NC(=O)Cn1cnc2c1c(=O)n(C)c(=O)n2C,inactive: 1.51%
14,N#CCCNC(=O)Cn1c(COc2ccc(Cl)cc2)nc2ccccc21,inactive: -0.65%
15,Cn1c(=O)[nH]c(=O)c2c1nc1n2CCN1Cc1ccccc1,inactive: -2.47%
16,Nc1nonc1-c1nc2ccccc2n1CC(=O)N1CCCCC1,inactive: 0.04%
17,Cc1ccc(C)c(CN2CCC(n3nnc4cc(F)ccc43)CC2)c1,active: 44.1%
18,CCOc1ccccc1OCC(=O)NNC(=O)Cn1cnc2c1c(=O)n(C)c(=O)n2C,inactive: 0.72%
19,CC1CCCCC1NC(=O)Cn1cnc2c1c(=O)n(C)c(=O)n2C (configuration not stated),inactive: -0.27%
20,Cc1ccccc1Cn1c(=O)c2c(nc3n2CCN3Cc2ccco2)n(C)c1=O,inactive: -3.79%
21,Cc1nc2ccccc2n1CC(=O)N/N=C/c1cccs1,inactive: -2.7%
22,COC(=O)c1ccccc1NC(=O)Cn1cnc2cc(C)c(C)cc21,inactive: 0.41%

row,SMILES,activation
1,CSCC[C@H](NC(=O)N1CCn2c1nc1ccccc12)C(=O)N[C@H](Cc1ccccc1)C(=O)O,inactive: -3.17%
2,Cc1ccc(NP(=O)(Oc2ccccc2)Oc2ccccc2)nc1,inactive: -3.07%
3,O=[N+]([O-])c1ccc(NC2CCN(Cc3ccccc3)CC2)c([N+](=O)[O-])c1,inactive: -0.76%
4,CC1CC(C)CN(C(=O)Cn2c(-c3nonc3N)nc3ccccc32)C1 (configuration not stated),inactive: -1.59%
5,Cc1csc2ncnc(NC3CCN(Cc4ccccc4)CC3)c12,inactive: -0.3%
6,Cn1c(=O)[nH]c(=O)c2c1nc(CN1CCN(Cc3ccccc3)CC1)n2CC(N)=O,inactive: -2.71%
7,Cc1ccc(OCC(O)Cn2c(=N)n(CCN3CCOCC3)c3ccccc32)cc1 (configuration not stated),inactive: -0.63%
8,COC(=O)c1ccc(NC(=O)Cn2c(-c3nonc3N)nc3ccccc32)cc1,inactive: -2.58%
9,N=c1n(CCN2CCCCC2)c2ccccc2n1CC(O)COc1ccccc1 (configuration not stated),inactive: -1.56%
10,O=[N+]([O-])c1cc([N+](=O)[O-])c(CCNc2ccccc2)c([N+](=O)[O-])c1,inactive: 6.52%
11,CCc1nc2c(n1)c1c(non1O)c1c2no[n+]1[O-],inactive: 7.24%
12,O=C(NC1CCCCC1)N1CCC(n2c(=O)[nH]c3ccccc32)CC1,inactive: 2.71%
13,Cn1c(=O)c2c(nc(Sc3nc4ccccc4n3CC(=O)N3CCCCC3)n2C)n(C)c1=O,inactive: 0.15%
14,CCC(C)[C@H](NC(=O)N1CCn2c1nc1ccccc12)C(=O)NCCc1ccccc1 (some centres not stated),inactive: 0.87%
15,C[C@H](O)[C@@H]1C(=O)N2CCc3ccc(-c4ccccc4)cc3[C@@H]2C[C@@H]1N(C)C(=O)Nc1cc(Cl)cc(Cl)c1,inactive: 1.21%
16,CCC(=O)Nc1cccc(C(=O)/C=C/c2cccs2)c1,inactive: 1.88%
17,COc1ccc(C2=NCC(CBr)S2)cc1 (configuration not stated),inactive: -0.65%
18,CCN(CC)CCn1c(=N)n(CCO)c2ccccc21,inactive: -2.16%
19,Cn1c(=O)c2c(ncn2CC(=O)N/N=C/c2ccco2)n(C)c1=O,inactive: -1.39%
20,CC(=O)N1CCc2cc(S(=O)(=O)NC(CC(C)C)C(=O)N3CCn4c3nc3ccccc34)ccc21 (configuration not stated),inactive: 0.19%
21,CSc1nc(N)nc2c1ncn2CC(=O)NCCCc1ccccc1,inactive: -2.22%
